Data published in ChEMBL document CHEMBL4033620, “Design, synthesis and biological evaluation of quinoline derivatives as HDAC class I inhibitors” (Eur J Med Chem, 2017).

Biological target: T1, Histone deacetylase 8 (Homo sapiens, UniProt Q9BY41)
T1 sequence (Q9BY41 whole entry): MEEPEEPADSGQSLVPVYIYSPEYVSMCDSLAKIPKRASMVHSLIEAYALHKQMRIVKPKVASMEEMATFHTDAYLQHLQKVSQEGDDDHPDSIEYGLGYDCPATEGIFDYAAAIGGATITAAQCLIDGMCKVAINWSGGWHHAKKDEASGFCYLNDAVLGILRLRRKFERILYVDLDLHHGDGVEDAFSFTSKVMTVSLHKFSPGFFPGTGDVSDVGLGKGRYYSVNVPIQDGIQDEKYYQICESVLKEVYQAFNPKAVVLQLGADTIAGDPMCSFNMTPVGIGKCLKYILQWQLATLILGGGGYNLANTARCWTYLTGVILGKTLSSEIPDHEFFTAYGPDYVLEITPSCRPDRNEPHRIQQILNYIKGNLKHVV
Test: Inhibition of HDAC8 (unknown origin) using substrate after 30 mins by fluorometric analysis

IC50: 7.47 µM
SMILES: O=C(CCCCCCC(=O)Nc1ccccc1)NO [VORINOSTAT]
